# Experimental data reported in ChEMBL document CHEMBL5038666, “Discovery of DNA-Targeting HDAC Inhibitors with Potent Antitumor Efficacy In Vivo That Trigger Antitumor Immunity” (J Med Chem, 2022).
# The chains behind the UniProt entries cited, without tags or fusion partners.
# UniProt Q13547, whole entry: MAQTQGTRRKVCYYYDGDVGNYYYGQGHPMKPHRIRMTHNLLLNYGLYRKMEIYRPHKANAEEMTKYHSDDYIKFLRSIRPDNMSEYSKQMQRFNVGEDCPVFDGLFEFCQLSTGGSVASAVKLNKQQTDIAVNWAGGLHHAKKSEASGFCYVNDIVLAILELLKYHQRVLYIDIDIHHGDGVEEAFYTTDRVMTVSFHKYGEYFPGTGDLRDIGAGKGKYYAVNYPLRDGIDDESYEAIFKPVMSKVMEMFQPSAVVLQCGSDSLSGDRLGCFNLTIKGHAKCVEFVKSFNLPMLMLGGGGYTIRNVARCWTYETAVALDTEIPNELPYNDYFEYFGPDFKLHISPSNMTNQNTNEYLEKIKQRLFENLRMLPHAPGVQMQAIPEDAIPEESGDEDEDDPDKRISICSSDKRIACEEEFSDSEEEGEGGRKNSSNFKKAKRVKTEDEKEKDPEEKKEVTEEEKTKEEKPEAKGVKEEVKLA
# What was measured:
# [1] = biological target: T1, Protein deacetylase HDAC6 (Homo sapiens) (UniProt Q9UBN7); assay: Potency index, ratio of SAHA IC50 to test compound IC50 for inhibition of HDAC6 (unknown origin) using fluorogenic substrate incubated for 30 mins by fluorescence based assay
# T1 sequence (whole entry): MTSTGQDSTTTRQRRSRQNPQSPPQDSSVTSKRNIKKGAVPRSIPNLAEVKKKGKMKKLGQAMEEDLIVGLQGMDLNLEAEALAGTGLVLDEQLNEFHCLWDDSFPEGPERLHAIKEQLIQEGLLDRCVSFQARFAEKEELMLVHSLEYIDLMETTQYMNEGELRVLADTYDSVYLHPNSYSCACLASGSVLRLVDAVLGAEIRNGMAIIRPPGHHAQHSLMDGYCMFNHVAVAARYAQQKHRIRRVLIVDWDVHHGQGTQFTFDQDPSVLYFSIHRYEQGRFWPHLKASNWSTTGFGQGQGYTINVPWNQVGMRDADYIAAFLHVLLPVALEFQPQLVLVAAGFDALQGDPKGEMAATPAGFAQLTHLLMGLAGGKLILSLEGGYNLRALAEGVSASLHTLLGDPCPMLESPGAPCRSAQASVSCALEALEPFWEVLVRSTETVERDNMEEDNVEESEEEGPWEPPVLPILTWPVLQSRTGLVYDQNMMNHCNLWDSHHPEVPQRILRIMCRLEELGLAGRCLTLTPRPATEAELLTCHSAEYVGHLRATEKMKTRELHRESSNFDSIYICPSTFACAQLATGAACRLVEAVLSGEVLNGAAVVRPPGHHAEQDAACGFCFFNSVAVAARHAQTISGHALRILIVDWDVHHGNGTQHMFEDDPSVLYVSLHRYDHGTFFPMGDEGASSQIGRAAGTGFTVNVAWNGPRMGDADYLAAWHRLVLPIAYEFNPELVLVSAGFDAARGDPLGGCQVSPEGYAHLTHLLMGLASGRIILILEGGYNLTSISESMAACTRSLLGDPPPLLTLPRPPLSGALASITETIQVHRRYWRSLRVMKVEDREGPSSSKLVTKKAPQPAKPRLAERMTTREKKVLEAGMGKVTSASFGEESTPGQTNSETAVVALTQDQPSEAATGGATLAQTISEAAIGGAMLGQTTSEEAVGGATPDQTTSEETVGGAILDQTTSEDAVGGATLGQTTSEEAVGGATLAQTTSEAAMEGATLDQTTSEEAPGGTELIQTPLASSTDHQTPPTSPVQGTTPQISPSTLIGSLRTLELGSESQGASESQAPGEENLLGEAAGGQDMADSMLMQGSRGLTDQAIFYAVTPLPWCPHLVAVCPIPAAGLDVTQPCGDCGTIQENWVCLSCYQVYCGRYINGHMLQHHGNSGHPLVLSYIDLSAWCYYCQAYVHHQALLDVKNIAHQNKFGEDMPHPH
# Histone deacetylase 1 = Histone deacetylase 1 (Homo sapiens, UniProt Q13547); assay: Potency index, ratio of SAHA IC50 to test compound IC50 for inhibition of HDAC1 (unknown origin) using fluorogenic substrate incubated for 30 mins by fluorescence based assay
Ratio IC50 [1],Ratio IC50 (Histone deacetylase 1),Compound
2.5,–,O=C(CCCCCCCOc1cccc(-c2nc3ccccc3[nH]2)c1)NO
2.5,10,O=C(CCCCCCOc1cccc(-c2nc3ccccc3[nH]2)c1)NO
2.5,–,O=C(CCCCCCOc1ccc(-c2nc3ccc(-c4nc5ccccc5[nH]4)cc3[nH]2)cc1)NO
2.5,–,O=C(CCCCCCCOc1cccc(-c2nc3ccc(-c4nc5ccccc5[nH]4)cc3[nH]2)c1)NO
